Patent publication US6495584B1, “Use of 3-(1H-imidazol-4-ylmethyl)-indan-5-ol in the manufacture of a medicament for intraspinal, intrathecal or epidural administration” (Orion Corporation, priority 1998, dated 2002)

Conditions: hydrochloride salts
Description: The hydrochloride salts of the above compounds were shaken for 90 minutes in a separatory funnel at room temperature with equal volumes (1:1, v/v) of an organic phase (water saturated 1-octanol) and an aqueous solution (0.1 M HCI or 67 mM phosphate buffer pH 7.4), separating the two phases. The quantitations of the amounts of the studied compounds were performed by the RP-HPLC (reverse phase high pressure liquid chromatography) technique. […] As a mobile phase, methanol: 15 mM phosphate buffer pH2 at the ratio 50:50 (v/v) was used.
The partition coefficient (P) is a ratio of the equilibrium concentrations of a solute in a lipophilic environment (1-octanol) and water (P=coct/cwater). The logarithm of the partition coefficient (logP) is used as a lipophilicity parameter for a neutral molecule. D is the partition coefficient measured at a pH where the molecules are partly or totally ionized.

For “clonidine [Compound B, reference compound]”, the “logD (pH 7.4)” value (1-octanol / 67 mM phosphate buffer pH 7.4, room temperature) was 0.73 and the “logD (pH 1)” value (1-octanol / 0.1 M HCl, room temperature) was −1.02.
